The test concerns the target T1, rMOR-1 (Rattus norvegicus, UniProt P33535).
T1 construct: gene Oprm1; no tag told
The test is described as follows: [3H]DAMGO saturation binding, CHO membranes.

By UniProt entry, the sequences of proteins in these tests, tags left out.
UniProt P33535, whole entry: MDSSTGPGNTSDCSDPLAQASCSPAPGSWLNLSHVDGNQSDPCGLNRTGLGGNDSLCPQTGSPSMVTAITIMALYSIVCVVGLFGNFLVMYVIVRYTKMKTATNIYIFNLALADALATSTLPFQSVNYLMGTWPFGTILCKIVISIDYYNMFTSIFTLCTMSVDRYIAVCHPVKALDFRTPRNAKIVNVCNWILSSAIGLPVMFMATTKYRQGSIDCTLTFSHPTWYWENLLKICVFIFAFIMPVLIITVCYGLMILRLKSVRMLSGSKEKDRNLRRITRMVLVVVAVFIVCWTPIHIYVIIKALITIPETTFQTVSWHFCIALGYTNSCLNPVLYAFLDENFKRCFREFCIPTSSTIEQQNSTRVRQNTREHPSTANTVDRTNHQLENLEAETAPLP

Broadly, the Kd is the free concentration of one partner at which half of the binding sites on the other are occupied at equilibrium, for simple one-to-one binding. Read a low Kd as higher affinity. For `C[C@@H](NC(=O)[C@@H](N)Cc1ccc(O)cc1)C(=O)NCC(=O)N(C)[C@@H](Cc1ccccc1)C(=O)NCCO` [DAMGO], the Kd was determined as 0.39 ± 0.03 nM.

The record behind these values is PMC3057186, “Identification and characterization of seven new exon 11-associated splice variants of the rat mu opioid receptor gene, OPRM1” (Molecular Pain, 2011).
